Experimental findings from paper PMC2674222 (Biochemistry, 2009) are described below.

Sequences of proteins named here, by UniProt entry; tags and fusion partners are left off. A change or cut given only in a name is not applied to a line headed by its entry.
UniProt P00491: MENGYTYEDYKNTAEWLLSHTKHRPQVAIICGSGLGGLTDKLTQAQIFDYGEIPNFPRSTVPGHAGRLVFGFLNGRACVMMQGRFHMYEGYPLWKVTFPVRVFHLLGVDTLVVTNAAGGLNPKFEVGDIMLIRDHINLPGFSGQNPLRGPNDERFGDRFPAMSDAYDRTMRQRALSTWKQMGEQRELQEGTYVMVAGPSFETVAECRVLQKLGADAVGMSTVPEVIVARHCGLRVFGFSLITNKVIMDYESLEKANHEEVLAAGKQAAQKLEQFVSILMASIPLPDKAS

The target of this test is T1, F159W-Leuko-PNP (Homo sapiens, UniProt P00491, F159W/W16Y/W178Y/W94Y).
T1 sequence (P00491 1-289 W16Y/W94Y/F159W/W178Y): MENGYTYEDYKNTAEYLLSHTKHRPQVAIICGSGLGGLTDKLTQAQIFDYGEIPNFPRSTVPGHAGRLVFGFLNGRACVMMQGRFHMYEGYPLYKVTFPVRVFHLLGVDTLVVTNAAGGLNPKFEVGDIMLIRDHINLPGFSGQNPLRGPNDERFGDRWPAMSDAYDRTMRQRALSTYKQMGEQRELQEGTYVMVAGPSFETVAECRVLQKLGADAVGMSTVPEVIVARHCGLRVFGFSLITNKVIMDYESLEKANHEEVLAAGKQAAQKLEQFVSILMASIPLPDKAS
As to conditions: read-out: Ki* (slow-onset tight binding constant); 50 mM KH2PO4, pH 7.4, 25 °C; ∼8 mM inosine.

Immucillin-H [ImmH]: the Ki (as a rule, a measure of affinity in units of concentration, obtained from inhibition or displacement) came out at 2.1 nM.
“4'-deaza-1'-aza-2'-deoxy-1'-(9-methylene)-Immucillin-H [DADMe-ImmH]”: the Ki worked out at 0.06 ± 0.002 nM.
